Test [1] concerns the target T1, Human recombinant cathepsin S (Homo sapiens, UniProt P25774).
T1 construct: purchased Merck 219343; host or cells: E. coli
As to the kind of experiment: In vitro cathepsin Ki inhibition measurement, cathepsin S. The format is biochemical. How it is done:
Stock solutions of substrate or inhibitor were made up to 10 mM in 100% dimethylsulfoxide (DMSO) (Rathburns, Glasgow, U.K.) and diluted as appropriately required. In all cases the DMSO concentration in the assays was maintained at less than 1% (vol./vol.). The equilibrium inhibition constants (Ki^ss) for each compound were measured under steady-state conditions monitoring enzyme activity as a function of inhibitor concentration. […] The apparent inhibition constant (Ki) for each compound was determined on the basis that inhibition was reversible and occurred by a pure-competitive mechanism. […] Biophys. […] Curves were fitted by non-linear regression analysis (Prism) using a fixed value for the enzyme concentration.

Protein sequences, listed by entry. Tags and fused reporters are not part of them. Residues count along the entry.
UniProt P25774, 115-331: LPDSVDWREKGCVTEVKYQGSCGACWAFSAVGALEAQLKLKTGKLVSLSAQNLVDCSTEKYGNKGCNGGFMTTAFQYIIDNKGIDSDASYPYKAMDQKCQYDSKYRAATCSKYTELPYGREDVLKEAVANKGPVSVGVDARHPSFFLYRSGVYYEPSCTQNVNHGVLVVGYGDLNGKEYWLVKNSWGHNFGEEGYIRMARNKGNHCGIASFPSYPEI

Test [2] concerns the target T2, Human recombinant cathepsin K (Homo sapiens, UniProt P43235).
T2 sequence (P43235 115-329): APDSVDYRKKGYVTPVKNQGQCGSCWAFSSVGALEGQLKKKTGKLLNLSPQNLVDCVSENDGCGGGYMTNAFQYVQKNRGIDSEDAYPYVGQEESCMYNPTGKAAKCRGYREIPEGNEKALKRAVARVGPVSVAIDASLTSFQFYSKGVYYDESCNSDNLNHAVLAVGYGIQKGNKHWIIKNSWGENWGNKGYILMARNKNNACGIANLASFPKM
As to the kind of experiment: In vitro cathepsin Ki inhibition measurement, cathepsin K. The format is biochemical. How it is done:
Stock solutions of substrate or inhibitor were made up to 10 mM in 100% dimethylsulfoxide (DMSO) (Rathburns, Glasgow, U.K.) and diluted as appropriately required. In all cases the DMSO concentration in the assays was maintained at less than 1% (vol./vol.). The equilibrium inhibition constants (Ki^ss) for each compound were measured under steady-state conditions monitoring enzyme activity as a function of inhibitor concentration. […] B. […] The apparent inhibition constant (Ki) for each compound was determined on the basis that inhibition was reversible and occurred by a pure-competitive mechanism. […] F. Trends Biochem. […] Morrison, J. F. Biochim. Biophys. […] Curves were fitted by non-linear regression analysis (Prism) using a fixed value for the enzyme concentration.

The mark [3] stands for this setting: relative to prior art compound (38).

For the compound `O=C(N[C@H](C(=O)N1CC[C@H]2OCC(=O)[C@H]21)C1CCCCC1)c1ccccc1` [Compound 1], the “fold improvement in in vitro potency against human cathepsin S” value in test [1] (setting [3]) is given as 2.5 fold.
Turning to `O=C(N[C@H](C(=O)N1C[C@H](Cl)[C@H]2OCC(=O)[C@H]21)C1CCCCC1)c1ccccc1` [EXAMPLE 1, N—((S)-2-((3aS,6S,6aS)-6-chloro-3-oxodihydro-2H-furo[3,2-b]pyrrol-4(5H,6H,6aH)-yl)-1-cyclohexyl-2-oxoethyl)benzamide], the “fold improvement in in vitro potency against human cathepsin K” value in test [2] (relative to Compound 1) is 8.7 fold; in test [2] (setting [3]) it was “greater than 114 fold”. The “fold improvement in in vitro potency against human cathepsin S” value is given as 27 fold in test [1] (relative to Compound 1) and 65 fold in test [1] (setting [3]).

These data come from patent publication US8008290B2, “Compounds” (priority 2009, dated 2011).
